# Experimental data published in PubChem BioAssay (EPA / NIEHS).
# This is a selection; strong and weak results do not stand in their true shares. Activity calls are given as the source filed them. The calls were made as follows: active = hit-call score of the fitted dose curve at least 0.9, where 1 is the maximum; inactive = score below 0.9.
# Assay: ATG_RORE_CIS: Attagene CIS-FACTORIAL HepG2 Assay for human RAR-related Orphan Receptor Element (RORE) (AID 2282959)
# Details: HepG2 Attagene cis-factorial RORE reporter, mRNA; actives raise or lower the signal
Compound,outcome,AC50
CC(C)CCCCCCOC(=O)CCCCC(=O)OCCCCCCC(C)C,inactive,–
O=C(C(=O)c1ccccc1)c1ccccc1,inactive,–
C/C=C/C=C/CCCCCCCO,–,active: 31.5 µM
C=C(C)C(=O)OCCOCCOC(=O)C(=C)C,inactive,–
CC(C)(COC(=O)c1ccccc1)COC(=O)c1ccccc1,–,active: 51.1 µM
CCOC(=O)[C@@H](C)Oc1ccc(Oc2nc3ccc(Cl)cc3o2)cc1,inactive,–
CCCOCCC,inactive,–
CCCCCCCC/C=C\CCCCCCCC(=O)OCC,inactive,–
O=S(=O)(O)CCCN1CCOCC1,inactive,–
CC(C)C(=O)C(C)C,inactive,–
CCN(CC)CCNc1ccc(CNC=O)c2sc3ccc(OC)cc3c(=O)c12,inactive,–
Cc1ncc([N+](=O)[O-])n1C,inactive,–
C1COCO1,inactive,–
CCc1cccc(CC)c1,inactive,–
Cc1ccc(S(=O)(=O)Oc2ccc(N=Nc3ccc(-c4ccc(N=Nc5c(O)ccc6cc(S(=O)(=O)O)cc(S(=O)(=O)O)c56)c(C)c4)cc3C)cc2)cc1,–,active: 5.37 µM
CCCCC(CC)COC(=O)CS (centres undefined),inactive,–
CC(C)(c1cc(Br)c(OCCO)c(Br)c1)c1cc(Br)c(OCCO)c(Br)c1,inactive,–
C=CCOC(=O)CCC1CCCCC1,inactive,–
Fc1c(F)c(F)c(Br)c(F)c1F,inactive,–
CCCCCCOCCO,inactive,–

Compound,outcome,AC50
CCCCCCCCCCC(CO)CCCCCCCC (centres undefined),inactive,–
O=C(O)C[C@H](O)C[C@H](O)/C=C/c1c(C2CC2)nc2ccccc2c1-c1ccc(F)cc1,inactive,–
CC(C)C(OC(=O)c1ccccc1)C(C)(C)COC(=O)c1ccccc1 (centres undefined),inactive,–
CCCCCCCCCCCCCCCC,inactive,–
CC1CCC(=O)C1=O (centres undefined),inactive,–
Nc1ccc(S(=O)(=O)O)c(N)c1,inactive,–
C1CCSC1,inactive,–
CC(=O)c1ccccc1,inactive,–
O=C(O)CC(C(=O)O)C(CC(=O)O)C(=O)O (centres undefined),inactive,–
O=C(O)c1cccc(Cl)n1,inactive,–
CC(CC=O)c1ccccc1 (centres undefined),inactive,–
Cc1c(C)c2c(c(C)c1O)CCC(C)(COc1ccc(CC3SC(=O)NC3=O)cc1)O2 (centres undefined),–,active: 11 µM
C=C1[C@H]2CC[C@@H]3[C@H]2C(C)(C)CCC[C@]13C,inactive,–
Cc1ccc(S(=O)(=O)O)cc1C,inactive,–
CCNc1nc(NC(C)(C)C)nc(OC)n1,inactive,–
CCCCCCOC(=O)CCCCCCCC(=O)OCCCCCC,inactive,–
C=CCCC(=O)/C=C/C1C(C)=CCCC1(C)C (centres undefined),inactive,–
CCC1(C)C(=O)N(Cl)C(=O)N1Cl (centres undefined),inactive,–
Nc1cccc(S(=O)(=O)c2cccc(N)c2)c1,inactive,–
